In ChEMBL document CHEMBL1145826, “New pyrimido[5,4-b]indoles as ligands for alpha(1)-adrenoceptor subtypes” (J Med Chem, 2003) one finds Ki data, which are given here for 1 compound.

By UniProt entry, the sequences of proteins in these tests, tags left out.
UniProt P35368, whole entry: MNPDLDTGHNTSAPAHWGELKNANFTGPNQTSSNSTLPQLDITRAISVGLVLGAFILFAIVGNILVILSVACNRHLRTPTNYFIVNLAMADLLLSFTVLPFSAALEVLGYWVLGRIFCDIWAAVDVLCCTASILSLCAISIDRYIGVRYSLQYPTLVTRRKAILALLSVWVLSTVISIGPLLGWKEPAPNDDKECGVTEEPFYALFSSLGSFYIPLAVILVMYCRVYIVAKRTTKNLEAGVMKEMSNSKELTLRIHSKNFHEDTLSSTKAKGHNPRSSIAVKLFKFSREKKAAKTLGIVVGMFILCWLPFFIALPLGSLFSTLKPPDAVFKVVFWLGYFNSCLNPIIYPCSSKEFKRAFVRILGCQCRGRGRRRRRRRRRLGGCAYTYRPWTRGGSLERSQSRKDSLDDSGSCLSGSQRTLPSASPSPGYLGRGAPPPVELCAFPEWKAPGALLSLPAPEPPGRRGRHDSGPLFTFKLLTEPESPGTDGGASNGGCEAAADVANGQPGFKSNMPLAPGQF

The target of the experiment is Alpha-1B adrenergic receptor (Homo sapiens, UniProt P35368). The experiment in a line: In vitro binding affinity at human Alpha-1B adrenergic receptor. An outline of the steps: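 Human α1A-, α1B- or α1D-AR stably expressed in HEK293 cells (calcium phosphate transfection, subclones chosen for high expression); membranes from scraped, homogenized cells spun at 30000g. Three experiments in duplicate, mean ± SE.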

In turn, `C[C@H](CN1CCN(c2cc(F)c(F)cc2F)CC1)N1C(=O)CC2(CCCC2)CC1=O` returned a Ki of 191 nM.

A word on the Ki: it is a measure of affinity in units of concentration, obtained from inhibition or displacement. Low readings indicate a stronger hold on the target, high ones a looser hold on the target.
